High-throughput results from PubChem BioAssay.
A selection: hits, their analogues and other compounds. The true share with any hit is near 1.7%.
CAL PDZ FP-1: CAL PDZ peptide-binding inhibitors, primary screen, biochemical, fluorescence polarization, Cer-tagged CAL PDZ, HTS. purified CAL PDZ, TMR-peptide fluorescence polarization, 1 h. Golgi-associated PDZ and coiled-coil motif-containing protein (Homo sapiens), Q9HD26. AID 504414, 2011. 330,000 compounds, 0.02% hits. inhibition, % at 20 µM;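 active = highest replicate inhibition of at least 40%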;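 also: plate controls were DMSO neutral control wells for no effect and unlabeled competitor peptide control wells for full effect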
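Test system: tagged CAL PDZ domain / Buffer or medium: sodium phosphate/NaCl buffer pH 7.4 with TCEP, IgG, Thesit / Reagent: TMR-labelled reporter peptide T*-PRC34 bound in PDZ groove / Compound dosing: single point, 20 µM / Schedule: 1 h incubation at room temperature before polarization reading / Technique: fluorescence polarization (mP) / Benchmarks: unlabelled peptide, DMSO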
CAL PDZ FP-2: untagged CAL PDZ binding inhibitors, primary screen, biochemical, fluorescence polarization, HTS; inhibition, % at 24.9 µM; 300,000 compounds, 0.92% hits; Golgi-associated PDZ and coiled-coil motif-containing protein (Homo sapiens), Q9HD26; purified CAL PDZ, TMR-peptide fluorescence polarization, 1 h;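 active = mean inhibition of at least 30% with at least half of replicates also reaching 30%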;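 also: 0% = DMSO neutral control and 100% = excess unlabeled competitor peptide PRC23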
dFosB act: activators of delta FosB homodimer, primary screen, biochemical, fluorescence polarization, TAMRA-CDK5 oligo, single point | Protein FosB (Mus musculus), P13346 | purified delta FosB; percent of positive-control signal above neutral wells | activation, % at 25 µM | 340,000 compounds, 0.99% hits;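 active = mean activation above about 17%, with every replicate also reaching it, limit read from the data, passing the limit was not always enough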
Yeast UUG start-1: modulators of start codon recognition fidelity in yeast; activity score, % at 18.7 µM; actives 0.13% (n = 350,000); S. cerevisiae UUG-firefly luciferase reporter, luminescence/redox ratio;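 active = replicate mean at a twofold rise or more, about +100% in these data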;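 note: firefly luciferase made from a UUG start codon reports start codon fidelity; reporter light over untreated wells divided by growth signal over untreated wells; some hits fall short of that in this replicate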
DYRK1A inh: rat Dyrk1A kinase inhibitors, primary screen, biochemical, single point, plate reader; ADP-Glo luminescence, NFATc1 peptide; AID 504441, 2011; inhibition, % at 12.5 µM; 310,000 compounds, 0.43% hits; in the data active = inhibition above about 50%;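 also: plate controls were vehicle with enzyme for no effect and no enzyme for full effect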
CDK5 inh: inhibitors of human CDK5/p35 kinase, primary screen, biochemical, single concentration; Recombinant CDK5/p35, ADP-Glo luminescence, 60 min; Cyclin-dependent kinase 5 (Homo sapiens) + Cyclin-dependent kinase 5 activator 1 (Homo …; 330,000 compounds, 0.01% hits; inhibition, % at 10 µM;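 active = highest replicate inhibition of at least 50% and at least 75% of replicates reaching 50%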;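 also: plate controls were DMSO neutral control for no effect and GW8510 at 10 µM for full effect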
Yeast UUG start-2: enhancers of UUG start codon usage in yeast, dose response, S. cerevisiae, UUG firefly luciferase, cherry-pick, set 2 | luminescence, 4 h; 100% means double the DMSO signal | 540 tested, under 10 active | activation, % at 38 µM | shares compounds with Yeast UUG start-1;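 active = signal increase whose fitted curve reaches an absolute level of 40 at a concentration under 10 µM; inactive = activity opposite to the expected increase, or the rest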
Starred values were filed as active, the others as inactive; i = inactive; x = no result.

SMILES	CAL PDZ FP-1	CAL PDZ FP-2	dFosB act	Yeast UUG start-1	DYRK1A inh	CDK5 inh	Yeast UUG start-2
C[C@H]1CCCCO[C@H](CN(C)C(=O)c2ccccc2)[C@@H](C)CN([C@@H](C)CO)C(=O)c2cc(NC(=O)CCC(F)(F)F)ccc2O1	x	x	x	128*	x	x	i
C[C@H](CO)N1C[C@H](C)[C@H](CN(C)Cc2ccccc2)OCCCC[C@H](C)Oc2ccc(NS(=O)(=O)c3ccc(F)cc3)cc2C1=O	x	x	x	235*	x	x	i
CC(C)NC(=O)Nc1cccc2c1O[C@H](CN(C)Cc1ccc(C(=O)O)cc1)[C@H](C)CN([C@H](C)CO)C2=O	x	x	x	132*	x	x	i
Cc1noc(C)c1NC(=O)N(C)C[C@@H]1OCCCC[C@H](C)Oc2ccc(NS(=O)(=O)c3ccc(F)cc3)cc2C(=O)N([C@@H](C)CO)C[C@@H]1C	x	x	x	183*	x	x	i
Cc1noc(C)c1NC(=O)N(C)C[C@H]1OCCCC[C@@H](C)Oc2ccc(NS(=O)(=O)c3ccc(F)cc3)cc2C(=O)N([C@@H](C)CO)C[C@H]1C	x	x	x	-1	x	x	x
CC(C)NC(=O)Nc1cccc2c1O[C@H](CN(C)Cc1ccccc1)[C@H](C)CN([C@@H](C)CO)C2=O	x	x	x	-15	x	x	x
C[C@@H]1CCCCO[C@@H](CN(C)Cc2ccccc2)[C@H](C)CN([C@@H](C)CO)C(=O)c2cc(NC(=O)Nc3ccc(F)cc3)ccc2O1	x	x	x	26	x	x	x
C[C@@H]1CCCCO[C@H](CN(C)CC2CCCCC2)[C@@H](C)CN([C@H](C)CO)C(=O)c2cc(NS(=O)(=O)c3cn(C)cn3)ccc2O1	x	x	x	4	x	x	x
C[C@@H]1CCCCO[C@H](CN(C)Cc2ccc(C(F)(F)F)cc2)[C@H](C)CN([C@@H](C)CO)C(=O)c2cc(NC(=O)Nc3ccc(F)cc3)ccc2O1	x	x	x	7	x	x	x
C[C@H](CO)N1C[C@H](C)[C@H](CN(C)Cc2ccc(C(F)(F)F)cc2)OCCCC[C@H](C)Oc2ccc(NC(=O)Nc3ccc(F)cc3)cc2C1=O	x	x	x	120*	x	x	i

The final 2 records of the part above open the next one.
SMILES	CAL PDZ FP-1	CAL PDZ FP-2	dFosB act	Yeast UUG start-1	DYRK1A inh	CDK5 inh	Yeast UUG start-2
C[C@@H]1CCCCO[C@H](CN(C)Cc2ccc(C(F)(F)F)cc2)[C@H](C)CN([C@@H](C)CO)C(=O)c2cc(NC(=O)Nc3ccc(F)cc3)ccc2O1	x	x	x	7	x	x	x
C[C@H](CO)N1C[C@H](C)[C@H](CN(C)Cc2ccc(C(F)(F)F)cc2)OCCCC[C@H](C)Oc2ccc(NC(=O)Nc3ccc(F)cc3)cc2C1=O	x	x	x	120*	x	x	i
C[C@H](CO)N1C[C@H](C)[C@@H](CN(C)CC2CCCCC2)OCCCC[C@H](C)Oc2ccc(NS(=O)(=O)c3cn(C)cn3)cc2C1=O	x	x	x	136*	x	x	i
CNC[C@H]1Oc2ccc(NC(=O)Nc3ccccc3)cc2CC(=O)N([C@@H](C)CO)C[C@H]1C	x	x	x	-3	x	x	x
COc1c(C)cccc1C(=O)NCc1ccc2c(c1)OCO2	-1	3	5	active	1	0	-10
Cc1c(C(=O)NCc2ccc3c(c2)OCO3)cccc1[N+](=O)[O-]	0	0	6	x	-10	-3	x
CCC(=O)Nc1ccc2c(c1)C(=O)N(C)[C@H]1CC[C@H](CC(=O)NCC3CCCCC3)O[C@@H]1CO2	x	x	x	9	x	x	x
CCN(CC)S(=O)(=O)c1ccc(C)c(NC(=O)COC(=O)C=C(C)C)c1	-1	3	-3	180*	-5	-2	1
CCOc1ncccc1C(=O)OCC(=O)Nc1cc(S(=O)(=O)N(CC)CC)ccc1C	-1	2	-13	x	-1	1	x
COc1cccc(S(=O)(=O)N[C@@H]2CC[C@@H](CCn3cc(-c4ccccn4)nn3)O[C@H]2CO)c1	x	x	x	-28	x	x	x
O=C(NCCN1CCOCC1)C(=O)NCC1OCCCN1S(=O)(=O)c1cc(F)ccc1F (configuration not stated)	0	x	2	172*	0	1	-2
O=C(NCC1OCCc2ccccc21)c1ccco1 (configuration not stated)	0	x	-4	323*	3	0	2
